Test results: US7960408B2, “Quinolinyl and benzothiazolyl modulators” (Amgen Inc., priority 2000, dated 2011)

Protein sequences, listed by entry. Tags and fused reporters are not part of them.
UniProt P37231, whole entry: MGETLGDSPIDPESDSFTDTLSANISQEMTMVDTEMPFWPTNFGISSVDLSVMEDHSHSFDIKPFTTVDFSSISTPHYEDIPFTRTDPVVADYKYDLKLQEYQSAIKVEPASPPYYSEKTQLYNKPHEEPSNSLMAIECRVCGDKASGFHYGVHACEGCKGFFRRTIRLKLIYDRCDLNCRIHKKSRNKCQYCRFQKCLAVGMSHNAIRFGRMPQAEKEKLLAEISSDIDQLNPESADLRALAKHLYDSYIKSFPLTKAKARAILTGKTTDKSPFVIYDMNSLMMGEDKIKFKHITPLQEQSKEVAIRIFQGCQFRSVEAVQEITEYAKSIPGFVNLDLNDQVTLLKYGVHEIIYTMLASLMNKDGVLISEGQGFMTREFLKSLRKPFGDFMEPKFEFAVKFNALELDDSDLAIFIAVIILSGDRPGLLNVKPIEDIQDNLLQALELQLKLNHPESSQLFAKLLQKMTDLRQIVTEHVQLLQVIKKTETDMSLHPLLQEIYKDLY

Biological target: PPARγ (Homo sapiens, UniProt P37231)
Experiment: PPARγ ligand binding assay utilizing [3H]-BRL 49653 as the radioligand
Conditions: read-out: PPARγ Binding IC50; concentration required to reduce by 50% the specific binding of [3H]-BRL 49653

- IC50: < 1 µM
Compound: O=S(=O)(Nc1cc(Cl)c(Oc2cnc3ccccc3c2)c(Cl)c1)c1ccc(Cl)cc1C(F)(F)F
